ChEMBL document CHEMBL2346555, “Efficacious cyclic N-acyl O-amino phenol duocarmycin prodrugs” (J Med Chem, 2013)

Experiments:
[1] = Half life of the compound in phosphate buffer at pH 7
Plasma = test: Half life in human plasma

## O=C(Nc1ccc2[nH]c(C(=O)N3C[C@@H](CCl)c4c3cc3c5c(cccc45)C(=O)NO3)cc2c1)c1cc2ccccc2[nH]1
[1]
  t1/2: 168 h
Plasma
  t1/2: 96 h
